Test results taken from patent US20240360148A1 (SUVALENT THERAPEUTICS, INC., priority 2021, published 2024).

By UniProt entry, the sequences of proteins in these tests, tags left out.
UniProt Q9UBE0, whole entry: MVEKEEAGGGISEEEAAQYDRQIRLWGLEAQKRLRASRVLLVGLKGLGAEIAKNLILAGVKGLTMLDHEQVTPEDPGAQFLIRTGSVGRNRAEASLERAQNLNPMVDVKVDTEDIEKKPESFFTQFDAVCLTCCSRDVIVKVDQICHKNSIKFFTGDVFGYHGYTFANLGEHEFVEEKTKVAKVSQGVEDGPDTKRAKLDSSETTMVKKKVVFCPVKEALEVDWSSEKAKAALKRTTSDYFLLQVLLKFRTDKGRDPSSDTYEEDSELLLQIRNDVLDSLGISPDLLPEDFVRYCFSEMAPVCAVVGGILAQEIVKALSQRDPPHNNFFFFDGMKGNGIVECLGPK
UniProt Q9UBT2, whole entry: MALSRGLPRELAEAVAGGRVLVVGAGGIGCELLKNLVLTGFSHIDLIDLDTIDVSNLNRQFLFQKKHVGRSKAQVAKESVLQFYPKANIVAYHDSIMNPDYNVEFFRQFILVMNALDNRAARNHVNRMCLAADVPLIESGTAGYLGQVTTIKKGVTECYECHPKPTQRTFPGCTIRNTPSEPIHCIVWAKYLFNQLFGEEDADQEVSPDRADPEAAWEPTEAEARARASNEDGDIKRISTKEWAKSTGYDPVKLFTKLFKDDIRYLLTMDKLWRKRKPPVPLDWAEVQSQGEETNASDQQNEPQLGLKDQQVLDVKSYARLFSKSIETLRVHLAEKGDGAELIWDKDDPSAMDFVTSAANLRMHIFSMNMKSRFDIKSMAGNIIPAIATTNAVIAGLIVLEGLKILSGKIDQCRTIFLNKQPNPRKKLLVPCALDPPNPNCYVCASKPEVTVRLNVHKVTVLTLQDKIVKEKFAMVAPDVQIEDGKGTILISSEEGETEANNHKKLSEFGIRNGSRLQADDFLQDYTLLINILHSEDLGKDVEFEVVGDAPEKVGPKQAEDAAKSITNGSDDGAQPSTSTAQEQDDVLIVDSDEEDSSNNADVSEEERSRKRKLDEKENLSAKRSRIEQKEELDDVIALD

Assays:
SAE1 = SAE1 (Homo sapiens (Human), UniProt Q9UBE0+Q9UBT2); experiment: SAE High Throughput Biochemical Assay (HTRF), 15 min preincubation; conditions: read-out: 15 min preincubation HTRF IC50 (μM) Ave, SAE1 12.5 nM, ATP 100 μM
[1] = system: sumoylation levels (SUMO 2/3 conjugates) in HCT-116 cells; experiment: HCT-116 4 Hour Cell Assay (Western, SUMO 2/3 conjugates); conditions: read-out: HCT-116 Western 4 h IC50 (μM) Ave, 4 h treatment, Anti-Sumo 2-3 immunoblot
Method: This protocol describes the procedures used to assess the effects of compounds of interest on sumoylation levels. Immunoblot of SUMO 2/3 conjugates are performed and IC50 curves are generated upon quantification of sumoylations bands. HCT-116 cells are seeded in a 12 well plate (500,000 cells/well). The following day the cells are treated with compounds of interest (resuspended in DMSO) for 4 hours (11 concentrations with a three-fold dilution; starting concentration 25 μM) Following 4 hours of incubation the cells are washed with ice cold PBS 1×and protein extraction is performed with RIPA buffer supplemented with phosphatases and proteases inhibitors, 25 mM of NEM and 50 units/mL of Benzonase. Samples undergo centrifugation at 13,000 RPM, 4° C., for 10 minutes and the supernatant is collected. Protein quantification is performed using BCA. Non-Reducing Laemmli Buffer is added to the samples. Samples are heated at 75° C. for 10 minutes, and are centrifuged for 3 minutes at 9000 RPM Nupage 4-12% Bis Tris gels and 1× MOPS buffer (Fisher Scientific)+1× NuPAGE Antioxidant (Invitrogen) are used to perform the SDS-PAGE gel electrophoresis (20 to 40 μg of proteins are loaded in the gels). Proteins are then transferred to PVDF membranes and the level of total proteins are measured by staining with Revert Total Protein Stain and the fluorescent bands are acquired using the LI-COR FC (700 nm for 1 min) Membranes are blocked for 5 minutes with Bio-Rad Blocking Buffer and are subsequently incubated over night at 4° C. with Anti-Sumo 2-3 mAb (M BL #M114-3, 1:1000 in Bio-Rad Blocking Buffer, 0.2% Tween 20) Membranes are washed with 1×TBS-T (3 times for 5 minutes) and sumoylation is detected using Li-cor IRDye 800CW Goat anti-Mouse IgG secondary antibody (1:10,000 dilution) upon 1 hour of incubation in blocking buffer with 0.2% Tween 20 and 0.01% SDS. After the incubation, the membranes are washed with 1×TBS-T (3 times for 5 minutes). […] Sumoylation levels are quantified upon normalization with total protein levels, using the LI-COR Image Studio Lite 5.2 Software.

Q: What does the source list for `CCn1cc(-c2c(F)cccc2[C@@H]2CN(C(=O)/C=C/CNC3CC(F)(F)C3)Cc3sc(C#N)cc32)c(C(F)(F)F)n1`?
A: IC50 (SAE1): 4.79 µM; IC50 [1]: 2.06 µM

Q: `CCn1cc(-c2ccccc2C2CN(C(=O)/C=C/CN(C)C)Cc3sc(C#N)cc32)c(C(F)(F)F)n1` (stereo not drawn) was tested. Which IC50 (SAE1) did it give?
A: Its IC50 is 4.12 µM.

Q: And the IC50 [1]?
A: The IC50 was 0.444 µM.

Q: Which results are given for `CCn1cc(-c2c(F)cccc2[C@@H]2CN(C(=O)/C=C/CNC3CN(C(C)=O)C3)Cc3sc(C#N)cc32)c(C(F)(F)F)n1`?
A: IC50 (SAE1): 0.97 µM; IC50 [1]: > 25 µM
